pKd: −log10 of the molar value.
molecular target: Cyno TIGIT-Flag/His (cynomolgus monkey); assay: SPR (ProteOn XPR36), antibody captured, cyno TIGIT-Flag/His as analyte, 25 C, 1:1 model

Row | Substance | pKd
1 | KY09 (antibody) | 7.75
2 | KY17 (antibody) | 7.51
3 | KY18 (antibody) | 7.85

Stronger by pKd, values ahead:

Row | pKd | Substance
4 | 7.92 | KY11 (antibody)
5 | 8.58 | KY10 (antibody)
